Results: US9744189B1, “Compositions of lithium salts and methods of use” (University of South Florida, priority 2013, dated 2017)

Settings: rats, acute oral administration

O=C([O-])c1ccccc1O.[Li+] [Lithium Salicylate, lithium salicylate]
blood/plasma distribution versus brain distribution: essentially the same as the brain distribution
